{"source": "patent US20090181890A1", "about": "“Amylin and Amylin Agonists for Treating Psychiatric Diseases and Disorders” (Amylin Pharmaceuticals , Inc., priority 2006, published 2009)", "origin": "cited, not measured here", "conditions": "compared to human amylin; cited from earlier work", "data": [{"compound": "CC[C@H](C)[C@H](NC(=O)[C@@H]1CCCN1C(=O)CNC(=O)[C@H](Cc1ccccc1)NC(=O)[C@H](CC(N)=O)NC(=O)[C@H](CC(N)=O)NC(=O)[C@H](CO)NC(=O)[C@H](CO)NC(=O)[C@H](Cc1c[nH]cn1)NC(=O)[C@@H](NC(=O)[C@H](CC(C)C)NC(=O)[C@H](Cc1ccccc1)NC(=O)[C@H](CC(N)=O)NC(=O)[C@H](C)NC(=O)[C@H](CC(C)C)NC(=O)[C@H](CCCNC(=N)N)NC(=O)[C@H](CCC(N)=O)NC(=O)[C@@H](NC(=O)[C@H](C)NC(=O)[C@@H]1CSSC[C@H](NC(=O)[C@@H](N)CCCCN)C(=O)N[C@@H](CC(N)=O)C(=O)N[C@@H]([C@@H](C)O)C(=O)N[C@@H](C)C(=O)N[C@@H]([C@@H](C)O)C(=O)N1)[C@@H](C)O)C(C)C)C(=O)N[C@@H](CC(C)C)C(=O)N1CCC[C@H]1C(=O)N1CCC[C@H]1C(=O)N[C@H](C(=O)N[C@@H](CC(N)=O)C(=O)N[C@H](C(=O)NCC(=O)N[C@@H](CO)C(=O)N[C@@H](CC(N)=O)C(=O)N[C@H](C(=O)N[C@@H](Cc1ccc(O)cc1)C(N)=O)[C@@H](C)O)C(C)C)[C@@H](C)O", "note": "[^25,28,29Pro-h-amylin]", "values": [{"measurement": "solubility characteristics", "value": "more desirable"}]}]}
